# Data taken from PubChem BioAssay AID493244 (The Scripps Research Institute Molecular Screening Center, 2011).
# Only a part is listed here, and it is no random draw. The source made the active and inactive calls.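 How the source made its calls: active means inhibition above the mean inhibition of all tested compounds plus 3 SD (cut at about 17% in these data); inactive means the rest.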
# Biological target: Troponin I, cardiac muscle (Homo sapiens) + Troponin T, cardiac muscle (Homo sapiens) + Troponin C, slow skeletal and cardiac muscles (Homo sapiens) (UniProt P19429+P45379+P63316)
# Experiment: cardiac RTF calcium sensitivity inhibitors, primary screen, biochemical, IANBD-TnC fluorescence, EC70 calcium (AID 493244);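 further: assay run at fixed EC70 calcium of 1.6 mM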
# Conditions: IANBD-labeled cardiac RTF, Ca2+ fluorescence; at 7.15 µM; active compounds read high
row,Compound,inhibition
1,CCC(=O)N(c1ccccc1)C1(COC)CCN(CCn2nnn(CC)c2=O)CC1,inactive: -4.11%
2,CCC(=O)N(c1ccccc1)C1(COC)CCN(CCc2cccs2)CC1,inactive: -4.37%
